1 substance from patent US20160106107A1, “Compositions and Methods for Treating Microorganism” (priority 2006, published 2016) can be followed below.

This assay deals with healthy dry bean seed. Briefly: Germination of healthy dry bean seed. The class given is in vivo. Conditions: 0.25%.

For the substance oxysilver nitrate [High valency silver], the “Day to 50% germination” value was 5.0 days.
